According to paper PMC4207802:

Experiments:
[1] = target: F4 – FSHR-LRR10/TSHR (human) (UniProt P23945)
[2] = target: T1 – FSHR-HinR/TSHR (human) (UniProt P16473)
[3] = target: T3 – TSHR-LRR11/FSHR (human) (UniProt P16473)
[4] = target: T4 – TSHR-LRR10/FSHR (human) (UniProt P16473)
[5] = target: F4 – FSHR-LRR10/TSHR (human) (UniProt P23945); experiment: radioligand binding; competitive binding on intact transiently transfected COS-7 cells, 48 h after transfection; 80.000 cpm/ml 125I-bTSH with 0–100 mU/ml unlabeled bTSH; modified Hank's buffer with 1.3 mM CaCl2, 280 mM sucrose, 0.2% BSA, 2.5% milk powder; 4°C, four hours; binding to empty-vector cells subtracted; maximal binding capacity from a one-site fit, wild type TSHR set at 100%
[6] = target: T1 – FSHR-HinR/TSHR (human) (UniProt P16473); experiment: as above
[7] = target: T3 – TSHR-LRR11/FSHR (human) (UniProt P16473); experiment: as above
[8] = target: T4 – TSHR-LRR10/FSHR (human) (UniProt P16473); experiment: as above
[9] = target: T0 – TSHR (wild type human thyrotropin receptor) (human) (UniProt P16473); experiment: as above

Row | Substance | EC50 of intracellular cAMP accumulation in transfected COS-7 cells, bTSH dose-response [1] [mU/ml] | intracellular cAMP accumulation in transfected COS-7 cells, bTSH dose series; value at 100 mU/ml [1] [nM] | EC50 of intracellular cAMP accumulation in transfected COS-7 cells, bTSH dose-response [2] [mU/ml] | intracellular cAMP accumulation in transfected COS-7 cells, bTSH dose series; value at 100 mU/ml [2] [nM] | EC50 of intracellular cAMP accumulation in transfected COS-7 cells, bTSH dose-response; estimated value, curve did not reach a plateau [3] [mU/ml] | intracellular cAMP accumulation in transfected COS-7 cells, bTSH dose series; value at 100 mU/ml [3] [nM] | EC50 of intracellular cAMP accumulation in transfected COS-7 cells, bTSH dose-response; estimated value, curve did not reach a plateau [4] [mU/ml] | intracellular cAMP accumulation in transfected COS-7 cells, bTSH dose series; value at 100 mU/ml [4] [nM] | specific binding (% wt) [5] [% wt] | specific binding (% wt) [6] [% wt] | specific binding (% wt) [7] [% wt] | specific binding (% wt) [8] [% wt] | specific binding (% wt) [9] [% wt]
1 | bovine thyrotropin (bTSH) (from UniProt P01217 25-120; P01223 21-132) (ligand) | 10.3 | 45.1 | 2 | 60.8 | 13.7 | 31.2 | 25.2 | 30.7 | 19 | 28 | 7 | 7 | 
2 | bovine thyrotropin (bTSH) (from UniProt P01217 25-120; P01223 21-132) (ligand; other documents disagree on this pair) |  |  |  |  |  |  |  |  |  |  |  |  | 100
